# Measurements from patent US12195439B1, “C1-substituted isopropylamine fused heterocyclic mescaline derivatives” (Enveric Biosciences Canada Inc., priority 2022, dated 2025).
# By UniProt entry, the sequences of proteins in these tests, tags left out.
# UniProt P23975, whole entry: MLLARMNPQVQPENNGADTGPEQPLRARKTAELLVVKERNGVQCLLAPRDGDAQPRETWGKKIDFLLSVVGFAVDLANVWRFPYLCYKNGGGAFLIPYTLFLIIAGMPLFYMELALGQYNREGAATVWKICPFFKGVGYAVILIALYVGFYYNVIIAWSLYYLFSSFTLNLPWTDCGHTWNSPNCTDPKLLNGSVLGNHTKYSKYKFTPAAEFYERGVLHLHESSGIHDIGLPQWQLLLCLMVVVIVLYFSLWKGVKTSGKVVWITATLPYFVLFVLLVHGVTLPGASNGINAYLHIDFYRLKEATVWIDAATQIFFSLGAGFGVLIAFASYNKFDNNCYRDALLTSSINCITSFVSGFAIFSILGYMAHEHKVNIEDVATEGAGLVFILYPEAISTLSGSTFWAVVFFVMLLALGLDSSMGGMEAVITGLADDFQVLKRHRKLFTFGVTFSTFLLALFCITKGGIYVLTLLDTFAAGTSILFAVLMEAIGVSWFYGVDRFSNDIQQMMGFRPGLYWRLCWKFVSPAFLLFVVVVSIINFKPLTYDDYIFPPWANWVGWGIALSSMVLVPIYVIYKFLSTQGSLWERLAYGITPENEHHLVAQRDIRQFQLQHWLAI
# Molecular target: norepinephrine transporter (NET) (Homo sapiens, UniProt P23975)
# Experiment: Eurofins Cerep competition binding assay at norepinephrine transporter
# Conditions: read-out: NET, percent of control-specific binding, 10 μM test ligand, [3H]nisoxetine, recombinant transporter from CHO cells
compound,measurement,value
"CC(NC(C)(C)C)C(=O)c1cccc(Cl)c1 (stereo not shown) [Bupropion, bupropion]",inhibition at 10 µM,12%
